The labels stand for the following.
B1: Eukaryotic translation initiation factor 4E-binding protein 1 (Homo sapiens), Q13541 (parent)
chain: MSGGSSCSQTPSRAIPATRRVVLGDGVQLPPGDYSTTPGGTLFSTTPGGTRIIYDRKFLMECRNSPVTKTPPRDLPTIPGVTSPSSDEPPMEASQSHLRNSPEDKRAGGEESQFEMDI

This note sets out measurements from IntAct's records for PubMed 28698298.

In this assay the parent is B1. Particulars: with EIF4E2, O60573-1.
In the case of MSGGSSCSQTPSRAIPATRRVVLGDGVQLPPGDYSTTPGGTLFSTTPGGTRIIADRKFAMECRNSPVTKTPPRDLPTIPGVTSPSSDEPPMEASQSHLRNSPEDKRAGGEESQFEMDI [Y54A;L59A], the “effect of a mutation on the interaction” value is on record as “disrupting interaction strength”.

Turning to MSGGSSCSQTPSRAIPATRRVVLGDGVQLPPGDYSTTPGGTLFSTTPGGTRIIADRKFAMECRNSPVTKTPPRDAPTIPGATSPSSDEPPMEASQSHLRNSPEDKRAGGEESQFEMDI [Y54A;L59A;L75A;V81A], the “effect of a mutation on the interaction” value was “disrupting interaction strength”.

MSGGSSCSQTPSRAIPATRRVVLGDGVQLPPGDYSTTPGGTLFSTTPGGTRIIYDRKFLMECRNSPVTKTPPRDAPTIPGATSPSSDEPPMEASQSHLRNSPEDKRAGGEESQFEMDI [L75A;V81A]: the “effect of a mutation on the interaction” value is “disrupting interaction strength”.
